The test concerns the target 2α4:3β2 nAChR (Homo sapiens, UniProt P17787+P43681). Description: Two-electrode voltage-clamp electrophysiology in Xenopus oocytes, WT 2α4:3β2 receptor. As to conditions: 2α4:3β2, ligand alone; Hill co-efficient of one; 3α4:2β2 receptors. The format is cell-based.

The chains behind the UniProt entries cited, without tags or fusion partners. Residues count along the entry.
UniProt P17787, 26-502 limits assumed: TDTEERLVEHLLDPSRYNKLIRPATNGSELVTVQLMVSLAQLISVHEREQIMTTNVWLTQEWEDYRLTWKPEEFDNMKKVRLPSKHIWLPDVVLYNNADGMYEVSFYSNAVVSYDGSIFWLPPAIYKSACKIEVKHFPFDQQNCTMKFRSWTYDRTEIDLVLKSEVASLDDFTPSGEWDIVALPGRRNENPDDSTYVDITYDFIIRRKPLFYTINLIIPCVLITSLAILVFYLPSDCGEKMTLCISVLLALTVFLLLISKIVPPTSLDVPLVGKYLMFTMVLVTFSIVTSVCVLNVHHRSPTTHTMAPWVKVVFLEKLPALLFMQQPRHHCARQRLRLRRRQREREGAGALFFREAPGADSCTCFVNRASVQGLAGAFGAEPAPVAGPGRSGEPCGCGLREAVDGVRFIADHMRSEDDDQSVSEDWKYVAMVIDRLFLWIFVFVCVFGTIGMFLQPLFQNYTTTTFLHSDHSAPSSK
UniProt P43681, 29-627 limits assumed: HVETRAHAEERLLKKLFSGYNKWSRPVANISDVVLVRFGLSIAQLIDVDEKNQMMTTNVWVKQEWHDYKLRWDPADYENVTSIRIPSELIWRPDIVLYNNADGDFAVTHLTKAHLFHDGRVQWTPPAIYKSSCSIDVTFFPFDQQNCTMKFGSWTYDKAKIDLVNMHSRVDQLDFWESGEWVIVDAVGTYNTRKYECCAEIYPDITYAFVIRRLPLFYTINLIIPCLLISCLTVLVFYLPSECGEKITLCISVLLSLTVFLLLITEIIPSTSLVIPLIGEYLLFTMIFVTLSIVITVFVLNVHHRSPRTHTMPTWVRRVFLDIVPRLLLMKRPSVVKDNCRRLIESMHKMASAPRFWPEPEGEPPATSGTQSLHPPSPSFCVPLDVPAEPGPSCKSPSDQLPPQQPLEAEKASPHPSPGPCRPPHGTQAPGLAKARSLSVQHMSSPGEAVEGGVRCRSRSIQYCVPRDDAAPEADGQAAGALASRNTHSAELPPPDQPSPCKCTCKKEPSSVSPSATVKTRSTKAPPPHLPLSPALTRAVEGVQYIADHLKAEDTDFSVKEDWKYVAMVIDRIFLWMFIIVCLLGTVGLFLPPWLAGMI

For `CCOc1cncc(/C=C/CCNC)c1` [TC-2559], the concentration giving a half-maximal response (EC50) (usually the concentration needed to bring the measured effect to its halfway point) stood at 3.3 µM.

(Values after publication PMC4995024, “Ligand Binding at the α4-α4 Agonist-Binding Site of the α4β2 nAChR Triggers Receptor Activation through a Pre-Activated Conformational State” (PLoS ONE, 2016).)
